Laboratory results reported in ChEMBL document CHEMBL5108015, “4,6-Disubstituted-1H-Indazole-4-Amine derivatives with immune-chemotherapy effect and in vivo antitumor activity” (Eur J Med Chem, 2022).

Species: Homo sapiens
Test: Selectivity index, ratio of IC50 for inhibition of TDO in HEK293-A cells transfected with pCMV-TDO2 to inhibition of IDO in human HeLa cells
Type: cell-based

**Q.** How did the Ratio turn out when Cc1ccc(CNc2cc(C(F)(F)F)cc3[nH]ncc23)c([N+](=O)O)c1 was run?
**A.** Its Ratio is 100.
